Test results reported in patent US20130023553A1, “PEGYLATED OPIOIDS WITH LOW POTENTIAL FOR ABUSE AND SIDE EFFECTS” (Nektar Therapeutics, priority 2010, published 2013).

Amino acid sequences for entries named in this document (tags omitted). A change or cut given only in a name is not applied to a line headed by its entry.
UniProt P41145: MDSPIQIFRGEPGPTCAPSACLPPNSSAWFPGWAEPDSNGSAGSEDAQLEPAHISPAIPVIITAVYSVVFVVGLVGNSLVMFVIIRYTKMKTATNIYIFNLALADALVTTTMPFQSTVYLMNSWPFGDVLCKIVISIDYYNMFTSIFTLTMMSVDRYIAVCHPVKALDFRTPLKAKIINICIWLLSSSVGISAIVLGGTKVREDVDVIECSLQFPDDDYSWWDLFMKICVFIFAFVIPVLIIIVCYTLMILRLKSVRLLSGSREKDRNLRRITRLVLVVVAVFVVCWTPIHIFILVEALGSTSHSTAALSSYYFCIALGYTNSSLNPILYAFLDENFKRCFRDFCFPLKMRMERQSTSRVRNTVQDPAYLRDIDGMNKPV

Biological target: T1, human kappa opioid receptor (Homo sapiens, UniProt P41145)
T1 construct: expressed in transfected cells; host or cells: CHO cells
Test: biochemical
Format: binding

COc1ccc2c3c1O[C@H]1[C@@H](O)C=C[C@H]4[C@@H](C2)N(C)CC[C@@]341 [Codeine, codeine, reference compound]
pKi: 4.55

pKi: −log10 of the molar value.
